Only a part is listed here, and it is no random draw. The source made the active and inactive calls.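 How the source made its calls: active means plate Z-score above 3 for both tubulin-high and condensed-nucleus cell shares, with cell loss under 80%, at 10 µM; inactive means the rest, inconclusive results apart.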

These results are taken from PubChem BioAssay AID2205 (University of Pittsburgh Molecular Library Screening Center, 2009).

This experiment in a line: tubulin staining increase by stabilizing compounds – imaging, high-content imaging, primary screen (AID 2205). As to conditions: HeLa tubulin immunostaining HCS, 24 h; at 10 µM; active compounds read high; share of cells brighter than vehicle mean+2SD.
As for `COc1ccc(OP(C)(=O)Nc2ccc(Br)cc2)cc1` (centres undefined), the % tubulin-high responders was inactive: 2.82%.

On to `COc1ccc(C2=NCC(CBr)S2)cc1` (centres undefined), for which the % tubulin-high responders was inactive: 2.46%.

Regarding `CCN(CC)CC(O)COC(=O)C(O)(c1ccccc1)C1CCCCC1` (centres undefined), the % tubulin-high responders is inactive: 3.92%.

`CCc1nc2c(n1)c1c(non1O)c1c2no[n+]1[O-]`: the % tubulin-high responders is inactive: 8.03%.

Take `O=[N+]([O-])c1cc([N+](=O)[O-])c(CCNc2ccccc2)c([N+](=O)[O-])c1`: the % tubulin-high responders was inactive: 2.19%.

As to `CCc1ccc(OP(C)(=O)Nc2cccnc2)cc1` (centres undefined), the % tubulin-high responders is inactive: 3.19%.

Regarding `CP(=O)(Oc1ccccc1)N1CCOC1=O` (centres undefined), the % tubulin-high responders is inactive: 1.1%.

Take `Cc1ccc(NP(=O)(Oc2ccccc2)Oc2ccccc2)nc1`: the % tubulin-high responders was inactive: 2.9%.

Take `COc1ccccc1OP(C)(=O)Nc1c(C)n(C)n(-c2ccccc2)c1=O` (centres undefined): the % tubulin-high responders was inactive: 6.42%.

With `O=[N+]([O-])c1cccc2n[nH]nc12`, the % tubulin-high responders was inactive: 3.1%.

As to `CC(=O)N1C2C3N(C(C)=O)C1C1N(C(C)=O)C(C(N1C(C)=O)N3C(C)=O)N2C(C)=O`, the % tubulin-high responders is inactive: 3.46%.

With `CP(=O)(Nc1ccc(Cl)cc1)Oc1ccc(F)cc1` (centres undefined), the % tubulin-high responders is inactive: 3.34%.

For the compound `CCN(/C(=N/P(=O)(N1CCOCC1)N1CCOCC1)N1CCOCC1)c1ccc(OC)cc1`, the % tubulin-high responders is inactive: 2.12%.

`CC(C)(C)c1ccc(OP(C)(=O)O)cc1`: the % tubulin-high responders was inactive: 3.25%.

Regarding `COc1ccccc1OP(C)(=O)Nc1ccccc1Br` (centres undefined), the % tubulin-high responders is inactive: 4.18%.

In the case of `CC1CCN(C(=O)Oc2c(Cl)cc(Cl)c3cccnc23)CC1`, the % tubulin-high responders is inactive: 3.13%.

`CN(C)C(=O)OCCc1n(C)cc[n+]1C`: the % tubulin-high responders was inactive: 4.23%.

On to `CN(C)C(=O)c1c([N+](=O)[O-])cc([N+](=O)[O-])cc1[N+](=O)[O-]`, for which the % tubulin-high responders was inactive: 4.97%.

For the compound `CC(C)=N/N=C(\N)N[N+](=O)[O-]`, the % tubulin-high responders was inactive: 3.18%.

Turning to `CP(=O)(OC12CC3CC(CC(C3)C1)C2)OC12CC3CC(CC(C3)C1)C2`, the % tubulin-high responders was inactive: 0.944%.

As to `CCOC(=O)c1ccc(NP(C)(=O)Oc2ccc(Cl)cc2)cc1` (centres undefined), the % tubulin-high responders was inactive: 1.55%.

As for `O=[N+]([O-])c1ncn(CCn2ncnc2[N+](=O)[O-])n1`, the % tubulin-high responders was inactive: 4.63%.

Turning to `Cc1cc(C)cc(OP(C)(=O)Nc2cccc(C(F)(F)F)c2)c1` (centres undefined), the % tubulin-high responders is inactive: 1.43%.

Take `COc1ccc(OP(C)(=O)Nc2ccccc2Br)cc1` (centres undefined): the % tubulin-high responders is inactive: 5.82%.

For the compound `COc1ccccc1OP(C)(=O)Nc1ccc(C)c(C)c1` (centres undefined), the % tubulin-high responders is inactive: 3.42%.

In the case of `CCOP(=O)(Nc1ccccc1)OCC`, the % tubulin-high responders was inactive: 2.91%.

In the case of `Cc1cc(SC(NC(=O)c2ccc(F)cc2)C(Cl)(Cl)Cl)ncn1` (centres undefined), the % tubulin-high responders is inactive: 4.28%.

Consider `Cc1nc2ccc3ccccc3c2o1.O=[N+]([O-])c1cc([N+](=O)[O-])c(O)c([N+](=O)[O-])c1`, for which the % tubulin-high responders was inactive: 2.44%.

For the compound `CP(=O)(OCCOc1ccccc1)OCCOc1ccccc1`, the % tubulin-high responders was inactive: 3.78%.

For `CP(=O)(Nc1ccc(Cl)cc1Cl)Oc1ccccc1` (centres undefined), the % tubulin-high responders was inactive: 5.8%.

On to `CCN(N=Nc1nonc1N)c1nonc1N`, for which the % tubulin-high responders was inactive: 2.43%.

As for `Cc1ccc(N/C(=N/P(=O)(N2CCOCC2)N2CCOCC2)N2CCOCC2)cc1`, the % tubulin-high responders is inactive: 5.91%.

Consider `NC(=O)c1cc([N+](=O)[O-])cc([N+](=O)[O-])c1N`, for which the % tubulin-high responders was inactive: 3.79%.

For `Clc1ccc(Cl)c(NC2=NCC(CBr)S2)c1` (centres undefined), the % tubulin-high responders was inactive: 1.6%.

Consider `CN(C)CCOC(=O)C(O)(c1ccccc1)C1CCCC1` (centres undefined), for which the % tubulin-high responders is inactive: 2.52%.

With `CN1CCCC(OC(=O)C(c2ccccc2)c2ccccc2)C1` (centres undefined), the % tubulin-high responders is inactive: 3.09%.

Consider `COc1ccc(OP(C)(=O)Nc2ccccn2)cc1` (centres undefined), for which the % tubulin-high responders was inactive: 2.19%.

For the compound `COc1ccccc1OP(=O)(Nc1ccc(C)cn1)Oc1ccccc1OC`, the % tubulin-high responders is inactive: 2.71%.

In the case of `Cc1c2non([O-])c-2c(C)[n+](=O)[n+]1[O-]`, the % tubulin-high responders is inactive: 1.88%.

Take `O=C(NC(Sc1ccncn1)C(Cl)(Cl)Cl)c1ccccc1` (centres undefined): the % tubulin-high responders was inactive: 2.28%.

On to `Oc1ccccc1CNc1ccccn1`, for which the % tubulin-high responders is inactive: 1.89%.

Consider `CC(C)CC(=O)NC(Sc1ccc(Cl)cc1)C(Cl)(Cl)Cl` (centres undefined), for which the % tubulin-high responders was inactive: 0.972%.

With `O=[N+]([O-])c1cc([N+](=O)[O-])c(Nc2ccccn2)c([N+](=O)[O-])c1`, the % tubulin-high responders is inactive: 3.49%.

As to `Cc1c(NP(C)(=O)Oc2ccc(C(C)C)cc2)c(=O)n(-c2ccccc2)n1C` (centres undefined), the % tubulin-high responders is inactive: 3.04%.

Turning to `CCc1ccc(OP(C)(=O)O)cc1`, the % tubulin-high responders was inactive: 2.3%.

For the compound `COc1ccccc1OP(C)(=O)Nc1ccc(C)cc1C` (centres undefined), the % tubulin-high responders is inactive: 1.39%.

Regarding `CP(=O)(Nc1ccccn1)Oc1ccccc1` (centres undefined), the % tubulin-high responders was inactive: 2.78%.

On to `CCOc1ccc(C2=NCC(CBr)S2)cc1` (centres undefined), for which the % tubulin-high responders was inactive: 9.55%.

For `O=P1(Nc2nc3ccc(Cl)cc3s2)COc2ccccc2O1` (centres undefined), the % tubulin-high responders was inactive: 4.6%.

Regarding `CC(C)c1ccc(OP(C)(=O)Nc2ccc(SC(F)(F)F)cc2)cc1` (centres undefined), the % tubulin-high responders was inactive: 1.66%.

Turning to `CC(C)(C)C(=O)NC(Sc1ccccc1)C(Cl)(Cl)Cl` (centres undefined), the % tubulin-high responders was inactive: 2.2%.

Turning to `CP(=O)(Nc1ccccc1F)Oc1ccccc1` (centres undefined), the % tubulin-high responders is inactive: 3.04%.

Regarding `O=C(OCCN1CCN(CCOCc2ccccc2)CC1)C(O)(c1ccccc1)c1ccccc1`, the % tubulin-high responders is inactive: 2.06%.

On to `CC(=O)Nc1ccc(Oc2c([N+](=O)[O-])cc([N+](=O)[O-])cc2[N+](=O)[O-])cc1`, for which the % tubulin-high responders was inactive: 6.4%.

As for `CCOC(=O)NC(Sc1ccccc1)C(Cl)(Cl)Cl` (centres undefined), the % tubulin-high responders was inactive: 3.44%.

As for `c1ccc(-c2nn[nH]n2)c(-c2nn[nH]n2)c1`, the % tubulin-high responders was inactive: 1.32%.

As to `CCNC(=S)/N=C(\N)N[N+](=O)[O-]`, the % tubulin-high responders was inactive: 4.31%.

For the compound `O=C(NC1CCS(=O)(=O)C1)NP(=S)(Oc1ccccc1)Oc1ccccc1` (centres undefined), the % tubulin-high responders is inactive: 5.54%.

For the compound `COc1ccc(OP(C)(=O)Nc2ccc(SC(F)(F)F)cc2)cc1` (centres undefined), the % tubulin-high responders is inactive: 2.61%.

On to `CCOC(=O)c1ccc(NP(C)(=O)Oc2ccc(F)cc2)cc1` (centres undefined), for which the % tubulin-high responders is inactive: 3.59%.

For `CCN(CC)CCCOC(=O)C(O)(c1ccccc1)C1CCCCC1` (centres undefined), the % tubulin-high responders is inactive: 2.71%.

For `CCC(=O)N1C2C3N(C(=O)CC)C1C1N(C(=O)CC)C(C(N1C(=O)CC)N3C(=O)CC)N2C(=O)CC`, the % tubulin-high responders was inactive: 2.52%.

As to `Cc1ccc(OP(=O)(Nc2ccccn2)Oc2ccc(C)cc2)cc1`, the % tubulin-high responders is inactive: 2.45%.

For `CC(=O)NC(SC(=S)N(CC(C)C)CC(C)C)C(Cl)(Cl)Cl` (centres undefined), the % tubulin-high responders was inactive: 5%.
